These are literature values, as cited in patent US7186797B2, “Polypeptide conjugates with extended circulating half-lives” (Epix Pharmaceuticals, Inc., priority 2001, dated 2007).

For the series the following is noted: unconjugated polypeptide drug, background statement; cited from earlier work.

Regarding “interferon α-2b: commercially important polypeptide-based drug currently in use”, the t1/2 is 2 h.
Consider “interferon β: commercially important polypeptide-based drug currently in use”, for which the t1/2 was 1 h.
